Data on one molecule can be found in ChEMBL document CHEMBL2040720, “Potent CXCR4 antagonists containing amidine type Peptide bond isosteres” (ACS Med Chem Lett, 2011).

Sequences of proteins named here, by UniProt entry; tags and fusion partners are left off.
UniProt P61073, whole entry: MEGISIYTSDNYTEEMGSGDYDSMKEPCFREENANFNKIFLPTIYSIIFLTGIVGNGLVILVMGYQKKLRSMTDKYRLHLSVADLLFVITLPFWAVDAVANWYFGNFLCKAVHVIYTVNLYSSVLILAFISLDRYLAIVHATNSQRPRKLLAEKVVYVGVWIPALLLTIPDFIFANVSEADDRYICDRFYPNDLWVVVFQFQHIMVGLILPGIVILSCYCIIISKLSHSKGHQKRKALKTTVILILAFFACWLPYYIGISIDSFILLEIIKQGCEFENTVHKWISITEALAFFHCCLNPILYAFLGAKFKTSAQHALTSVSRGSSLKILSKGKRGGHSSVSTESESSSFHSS

The assay addresses C-X-C chemokine receptor type 4 (Homo sapiens, UniProt P61073). Kind of assay: Displacement of [125I]-SDF-1alpha from CXCR4 receptor expressed in HEK293 cells after 1 hr by scintillation counting. The assay is classed as cell-based. A general note: In a radioligand displacement assay an active substance lowers the binding of a labelled ligand.

A word on the IC50: it is the point on the concentration scale where inhibition reaches its midpoint. For `N=C(N)NCCC[C@@H]1NC(=O)[C@H](CCCNC(=N)N)NC(=O)[C@@H](Cc2ccc(O)cc2)NC(=O)CNC(=O)[C@H](Cc2ccc3ccccc3c2)NC1=O`, the IC50 is 126 nM.
